Measurements taken from article PMC10981688 (2024).

Target: recombinant human LOX1 (lectin-type oxidized LDL receptor 1) (human)
Assay: BLI

B1: recombinant human PCSK9 with 6x His tag (proprotein convertase subtilisin/kexin type-9) (natural protein)
chain: not shown
**Q.** With B1 as the binder, how does the koff read?
**A.** Its koff is 0.00972 s⁻¹.
